From ChEMBL document CHEMBL5257137, “Inhibition of Thiamine Diphosphate-Dependent Enzymes by Triazole-Based Thiamine Analogues” (ACS Med Chem Lett, 2023) come the findings set out here.

The structures appear in SMILES notation.

Assay [1] addresses T1, Pyruvate dehydrogenase E1 component subunit alpha, somatic form, mitochondrial (Sus scrofa) (UniProt P29804).
T1 sequence (whole entry): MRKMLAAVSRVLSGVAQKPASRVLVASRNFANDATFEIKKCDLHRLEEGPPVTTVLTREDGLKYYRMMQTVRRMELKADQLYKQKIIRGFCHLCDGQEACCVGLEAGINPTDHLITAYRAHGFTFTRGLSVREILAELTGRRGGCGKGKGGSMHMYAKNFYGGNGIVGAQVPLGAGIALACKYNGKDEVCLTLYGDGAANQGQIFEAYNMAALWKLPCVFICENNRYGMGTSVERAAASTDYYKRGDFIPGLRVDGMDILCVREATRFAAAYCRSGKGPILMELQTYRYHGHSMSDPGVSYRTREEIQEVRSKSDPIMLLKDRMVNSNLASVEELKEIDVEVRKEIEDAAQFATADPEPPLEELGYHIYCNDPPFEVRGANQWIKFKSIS
Kind of assay: Ratio of Km for ThDP substrate activity at porcine PDHc E1-subunit to Ki for inhibition of porcine PDHc E1-subunit assessed as inhibition constant preincubated for 30 mins followed by pyruvate addition using 10 uM ThDP as substrate by microplate reader analysis.

Another assay relates to Zymomonas mobilis. Kind of assay: Ratio of Km for ThDP substrate activity at Zymomonas mobilis pyruvate decarboxylase to Ki for inhibition of Zymomonas mobilis pyruvate decarboxylase assessed as inhibition constant preincubated for 60 mins followed by pyruvate addition using 10 uM ThDP as substrate by microplate reader analysis.
Another assay deals with Escherichia coli. Kind of assay: Ratio of Km for ThDP substrate activity at Escherichia coli OGDHc E1 to Ki for inhibition of Escherichia coli OGDHc E1 subunit assessed as inhibition constant preincubated for 60 mins followed by alpha-ketoglutarate addition using 30 uM ThDP as substrate by microplate reader analysis.
For another assay, the system named is Aerococcus viridans. As to the kind of experiment: Ratio of Km for ThDP substrate activity at Aerococcus viridans pyruvate oxidase to Ki for inhibition of Aerococcus viridans pyruvate oxidase assessed as inhibition constant preincubated for 30 mins followed by pyruvate addition using 50 uM ThDP as substrate by microplate reader analysis.

Consider `COc1ccc(-c2cn(CCCCc3cn(Cc4cnc(C)nc4N)nn3)nn2)cc1`, for which the Ratio in assay [1] amounted to 1.67.
As to `Cc1ncc(Cn2cc(CCCC(=O)NO)nn2)c(N)n1`, the Ratio came to 0.51 in the assay with Zymomonas mobilis, 1.49 in the assay with Escherichia coli, 1.11 in assay [1] and 0.25 in the assay with Aerococcus viridans.
The corresponding values for `Cc1ncc(Cn2cc(CCCCC(=O)NO)nn2)c(N)n1` are 0.4, 2.05, 0.5 and 0.22.
